Values of other authors in patent publication US20070004010A1, “Engineered Enzymes and Their Use for Synthesis of Thioglycosides” (THE UNIVERSITY OF BRITISH COLUMBIA, priority 2002, published 2007).

By UniProt entry, the sequences of proteins in these tests, tags left out.
UniProt P12614, whole entry E171A: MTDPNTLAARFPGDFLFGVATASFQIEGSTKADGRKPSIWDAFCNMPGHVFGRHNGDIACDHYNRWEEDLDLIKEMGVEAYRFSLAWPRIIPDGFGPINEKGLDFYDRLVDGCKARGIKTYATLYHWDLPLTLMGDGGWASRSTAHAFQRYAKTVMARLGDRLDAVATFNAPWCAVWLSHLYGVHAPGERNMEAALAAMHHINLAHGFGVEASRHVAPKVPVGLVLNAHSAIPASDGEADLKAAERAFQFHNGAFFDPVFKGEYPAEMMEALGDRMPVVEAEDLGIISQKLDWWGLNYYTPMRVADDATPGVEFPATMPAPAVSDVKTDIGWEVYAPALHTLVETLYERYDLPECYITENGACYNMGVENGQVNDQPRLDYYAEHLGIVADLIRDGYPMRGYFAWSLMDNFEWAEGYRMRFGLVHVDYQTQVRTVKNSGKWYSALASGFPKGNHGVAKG

Experiments:
[1] = target: Abg E171A (Agrobacterium sp., UniProt P12614, E171A); settings: read-out: KM value of the donor; shown previously; no donor substrate inhibition; cited from earlier work
[2] = cited from earlier work

In the case of `O=[N+]([O-])c1ccc(O[C@@H]2O[C@H](CO)[C@@H](O)[C@H](O)[C@H]2O)c([N+](=O)[O-])c1`, the Km [1] is given as less than 1 µM.

For `O=[N+]([O-])c1ccc([N+](=O)[O-])c(O)c1`, the pKa [2] is listed as 5.15.
